Data published in patent US7115621B2, “Chemical compounds” (Lilly Icos LLC, priority 2001, dated 2006).

Biological target: PDE5 (bovine aorta) (Bos taurus, UniProt Q28156)
Assay: Inhibitory effect on cGMP-PDE, one-step assay, enzyme from bovine aorta
Conditions: read-out: PDE5 IC50; Table 2, Intermediates; footnote 1) vs. bovine aorta

IC50 [nM] | Structure (SMILES)
800 | COC(=O)C1Cc2c([nH]c3ccccc23)C(c2ccccc2Cl)N1 (centres unmarked)
650 | CCOC(=O)[C@H]1Cc2c([nH]c3ccccc23)[C@H](c2ccc(OC)cc2)N1
900 | CCCCNC(=O)C1Cc2c([nH]c3ccccc23)C(c2cccc(Cl)c2)N1 (centres unmarked)
700 | CCOC(=O)[C@@H]1Cc2c([nH]c3ccccc23)[C@@H](c2ccc3c(c2)OCO3)N1
850 | CCOC(=O)[C@H]1Cc2c([nH]c3ccccc23)[C@@H](c2ccc(OC)cc2)N1
470 | COC(=O)[C@@H]1Cc2c([nH]c3ccccc23)[C@@H](c2ccc3c(c2)OCO3)N1
200 | CCCCNC(=O)C1Cc2c([nH]c3ccccc23)C(c2ccc(OC)cc2)N1 (centres unmarked)
200 | CCOC(=O)[C@@H]1Cc2c([nH]c3ccccc23)[C@H](c2ccc3c(c2)OCO3)N1
500 | COC(=O)[C@H]1Cc2c([nH]c3ccccc23)[C@@H](c2ccc3c(c2)OCO3)N1C(=O)Oc1ccc([N+](=O)[O-])cc1

Biological target: recombinant human PDE5 (Homo sapiens, UniProt O76074)
Assay: Inhibitory effect on cGMP-PDE, one-step assay, human recombinant PDE5
Conditions: read-out: PDE5 IC50, Table 2, Intermediates
Description: The compounds of structural formula (I) were tested for an ability to inhibit PDE5. The ability of a compound to inhibit PDE5 activity is related to the IC50 value for the compound, i.e., the concentration of inhibitor required for 50% inhibition of enzyme activity. The IC50 value for compounds of structural formula (I) were determined using recombinant human PDE5.
Recombinant production of human PDE1B, PDE2, PDE4A, PDE4B, PDE4C, PDE4D, PDE5, and PDE7 was carried out similarly to that described in Example 7 of U.S. Pat. No. 5,702,936, incorporated herein by reference, except that the yeast transformation vector employed, which is derived from the basic ADH2 plasmid described in Price et al., Methods in Enzymology, 185, pp. 308–318 (1990), incorporated yeast ADH2 promoter and terminator sequences and the Saccharomyces cerevisiae host was the protease-deficient strain BJ2-54 deposited on Aug. 31, 1998 with the American Type Culture Collection, Manassas, Virginia, under accession number ATCC 74465. Transformed host cells were grown in 2×SC-leu medium, pH 6.2, with trace metals, and vitamins. After 24 hours, YEP medium-containing glycerol was added to a final concentration of 2×YET/3% glycerol. Approximately 24 hr later, cells were harvested, washed, and stored at −70° C.
Phosphodiesterase activity of the preparations was determined as follows. PDE assays utilizing a charcoal separation technique were performed essentially as described in Loughney et al. (1996). In this assay, PDE activity converts [32P]cAMP or [32P]cGMP to the corresponding [32P]5′-AMP or [32P]5′-GMP in proportion to the amount of PDE activity present. The [32P]5′-AMP or [32P]5′-GMP then was quantitatively converted to free [32P]phosphate and unlabeled adenosine or guanosine by the action of snake venom 5′-nucleotidase. […] The assay was performed at 30° C. in a 100 μL reaction mixture containing (final concentrations) 40 mM Tris HCl (pH 8.0), 1 μM ZnSO4, 5 mM MgCl2, and 0.1 mg/mL bovine serum albumin (BSA). PDE enzyme was present in quantities that yield <30% total hydrolysis of substrate (linear assay conditions). The assay was initiated by addition of substrate (1 mM [32P]cAMP or cGMP), and the mixture was incubated for 12 minutes. Seventy-five (75) μg of Crotalus atrox venom then was added, and the incubation was continued for 3 minutes (15 minutes. total). The reaction was stopped by addition of 200 μL of activated charcoal (25 mg/mL suspension in 0.1 M NaH2PO4, pH 4). After centrifugation (750×g for 3 minutes) to sediment the charcoal, a sample of the supernatant was taken for radioactivity determination in a scintillation counter and the PDE activity was calculated.
Cell pellets (29 g) were thawed on ice with an equal volume of Lysis Buffer (25 mM Tris HCl, pH 8, 5 mM MgCl2, 0.25 mM DTT, 1 mM benzamidine, and 10 μM ZnSO4). Cells were lysed in a Microfluidizer® (Microfluidics Corp.) using nitrogen at 20,000 psi. The lysate was centrifuged and filtered through 0.45 μm disposable filters. The filtrate was applied to a 150 mL column of Q SEPHAROSE® FastFlow (Pharmacia). The column was washed with 1.5 volumes of Buffer A (20 mM Bis-Tris Propane, pH 6.8, 1 mM MgCl2, 0.25 mM DTT, 10 μM ZnSO4) and eluted with a step gradient of 125 mM NaCl in Buffer A followed by a linear gradient of 125–1000 mM NaCl in Buffer A. Active fractions from the linear gradient were applied to a 180 mL hydroxyapatite column in Buffer B (20 mM Bis-Tris Propane (pH 6.8), 1 mM MgCl2, 0.25 mM DTT, 10 μM ZnSO4, and 250 mM KCl). After loading, the column was washed with 2 volumes of Buffer B and eluted with a linear gradient of 0–125 mM potassium phosphate in Buffer B. Active fractions were pooled, precipitated with 60% ammonium sulfate, and resuspended in Buffer C (20 mM Bis-Tris Propane, pH 6.8, 125 mM NaCl, 0.5 mM DTT, and 10 μM ZnSO4). The pool was applied to a 140 mL column of SEPHACRYL® S-300 HR and eluted with Buffer C. Active fractions were diluted to 50% glycerol and stored at −20° C. […]

Structure (SMILES) | IC50 [nM]
O=C(NCC1CCCCC1)[C@@H]1Cc2c([nH]c3ccccc23)[C@H](c2ccc3c(c2)OCO3)N1 | 680
O=C(NCCCn1ccnc1)[C@@H]1Cc2c([nH]c3ccccc23)[C@@H](c2ccc3c(c2)OCO3)N1 | 680
COc1ccc([C@H]2N[C@H](C(=O)NCCc3ccc(OC)c(OC)c3)Cc3c2[nH]c2ccccc32)cc1 | 90
O=C(NCCCN1CCCC1=O)[C@@H]1Cc2c([nH]c3ccccc23)[C@@H](c2ccc3c(c2)OCO3)N1 | 430
O=C(NCCN1CCOCC1)[C@@H]1Cc2c([nH]c3ccccc23)[C@@H](c2ccc3c(c2)OCO3)N1 | 420
COc1ccc(CCNC(=O)C2Cc3c([nH]c4ccccc34)C(c3ccc4c(c3)OCO4)N2)cc1OC (single isomer, unassigned) [17a] | 380
COc1ccc([C@H]2N[C@H](C(=O)NCCc3ccc(OC)c(OC)c3)Cc3c2[nH]c2ccccc32)cc1Cl | 860
COCCCNC(=O)C1NC(c2ccc3c(c2)OCO3)c2[nH]c3ccccc3c2C1C (centres unmarked) | 770
O=C(NC1CCCCC1)[C@@H]1Cc2c([nH]c3ccccc23)[C@@H](c2ccc3c(c2)OCO3)N1 | 800
COc1ccc(CCNC(=O)[C@@H]2Cc3c([nH]c4ccccc34)[C@@H](c3ccccc3)N2)cc1OC | 230
O=C(NCCCN1CCOCC1)[C@H]1Cc2c([nH]c3ccccc23)[C@H](c2ccc3c(c2)OCO3)N1 | 960
COc1ccc(CCNC(=O)C2NC(c3ccc4c(c3)OCO4)c3[nH]c4ccccc4c3C2C)cc1OC (centres unmarked) | 620
COC(=O)C1Cc2c([nH]c3ccccc23)C(c2ccccc2)N1 (centres unmarked) | 650

More lines, now with the values ahead:

IC50 [nM] | Structure (SMILES)
290 | O=C(NCCc1ccccc1)[C@@H]1Cc2c([nH]c3ccccc23)[C@@H](c2ccc3c(c2)OCO3)N1
920 | O=C(NCCc1ccccc1)[C@@H]1Cc2c([nH]c3ccccc23)[C@H](c2ccc3c(c2)OCO3)N1
590 | O=C(NC1CC1)[C@@H]1Cc2c([nH]c3ccccc23)[C@@H](c2ccc3c(c2)OCO3)N1
530 | COc1ccc(CNC(=O)C2Cc3c([nH]c4ccccc34)C(c3ccc4c(c3)OCO4)N2)cc1OC (single isomer, unassigned) [16a]
760 | O=C(NCc1ccccc1)[C@H]1Cc2c([nH]c3ccccc23)[C@H](c2ccc3c(c2)OCO3)N1
830 | O=C(NCc1ccc(F)cc1)[C@@H]1Cc2c([nH]c3ccccc23)[C@@H](c2ccc3c(c2)OCO3)N1
860 | CNC(=O)[C@@H]1Cc2c([nH]c3ccccc23)[C@H](c2ccc3c(c2)OCO3)N1
920 | CC(C)NC(=O)[C@@H]1Cc2c([nH]c3ccccc23)[C@H](c2ccc3c(c2)OCO3)N1
780 | O=C(NCCc1ccc(F)cc1)C1Cc2c([nH]c3ccccc23)C(c2ccc3c(c2)OCO3)N1 (single isomer, unassigned) [30a]
230 | COCCCNC(=O)C1Cc2c([nH]c3ccccc23)C(c2ccc3c(c2)OCO3)N1 (single isomer, unassigned) [29b]
330 | Nc1ccc(CNC(=O)[C@@H]2Cc3c([nH]c4ccccc34)[C@@H](c3ccc4c(c3)OCO4)N2)cc1
420 | O=C(NCCc1ccc(F)cc1)C1Cc2c([nH]c3ccccc23)C(c2ccc3c(c2)OCO3)N1 (single isomer, unassigned) [30b]
480 | O=C(Nc1ccc(F)cc1)[C@@H]1Cc2c([nH]c3ccccc23)[C@@H](c2ccc3c(c2)OCO3)N1
360 | COC(=O)[C@H]1Cc2c([nH]c3ccccc23)[C@@H](c2ccc3c(c2)OCO3)N1
340 | COCCCNC(=O)C1Cc2c([nH]c3ccccc23)C(c2ccc3c(c2)OCO3)N1 (single isomer, unassigned) [29a]
890 | NC(=O)[C@@H]1Cc2c([nH]c3ccccc23)[C@@H](c2ccc3c(c2)OCO3)N1
820 | O=C(NCC1CC1)C1Cc2c([nH]c3ccccc23)C(c2ccc3c(c2)OCO3)N1 (single isomer, unassigned) [26a]
540 | O=C(NCC1CC1)C1Cc2c([nH]c3ccccc23)C(c2ccc3c(c2)OCO3)N1 (single isomer, unassigned) [26b]
220 | O=C(NCCc1ccccn1)[C@@H]1Cc2c([nH]c3ccccc23)[C@@H](c2ccc3c(c2)OCO3)N1
510 | COc1ccc(C2NC(C(=O)NCc3ccccc3)Cc3c2[nH]c2ccccc32)cc1 (centres unmarked)
120 | COc1ccc(CCNC(=O)C2Cc3c([nH]c4ccccc34)C(c3ccc4c(c3)OCO4)N2)cc1OC (single isomer, unassigned) [17b]
160 | CC(=O)Nc1ccc(CNC(=O)[C@@H]2Cc3c([nH]c4ccccc34)[C@@H](c3ccc4c(c3)OCO4)N2)cc1
360 | O=C(Nc1ccccc1)[C@@H]1Cc2c([nH]c3ccccc23)[C@@H](c2ccc3c(c2)OCO3)N1
310 | COc1ccc(CNC(=O)C2Cc3c([nH]c4ccccc34)C(c3ccc4c(c3)OCO4)N2)cc1OC (single isomer, unassigned) [16b]
940 | CC(C)NC(=O)[C@@H]1Cc2c([nH]c3ccccc23)[C@@H](c2ccc3c(c2)OCO3)N1
